Source: PMC9289666, “Highly Parallelized, Multicolor Optogenetic Recordings of Cellular Activity for Therapeutic Discovery Applications in Ion Channels and Disease-Associated Excitable Cells” (Frontiers in Molecular Neuroscience, 2022)

Protein sequences, listed by entry. Tags and fused reporters are not part of them.
UniProt Q99250, whole entry: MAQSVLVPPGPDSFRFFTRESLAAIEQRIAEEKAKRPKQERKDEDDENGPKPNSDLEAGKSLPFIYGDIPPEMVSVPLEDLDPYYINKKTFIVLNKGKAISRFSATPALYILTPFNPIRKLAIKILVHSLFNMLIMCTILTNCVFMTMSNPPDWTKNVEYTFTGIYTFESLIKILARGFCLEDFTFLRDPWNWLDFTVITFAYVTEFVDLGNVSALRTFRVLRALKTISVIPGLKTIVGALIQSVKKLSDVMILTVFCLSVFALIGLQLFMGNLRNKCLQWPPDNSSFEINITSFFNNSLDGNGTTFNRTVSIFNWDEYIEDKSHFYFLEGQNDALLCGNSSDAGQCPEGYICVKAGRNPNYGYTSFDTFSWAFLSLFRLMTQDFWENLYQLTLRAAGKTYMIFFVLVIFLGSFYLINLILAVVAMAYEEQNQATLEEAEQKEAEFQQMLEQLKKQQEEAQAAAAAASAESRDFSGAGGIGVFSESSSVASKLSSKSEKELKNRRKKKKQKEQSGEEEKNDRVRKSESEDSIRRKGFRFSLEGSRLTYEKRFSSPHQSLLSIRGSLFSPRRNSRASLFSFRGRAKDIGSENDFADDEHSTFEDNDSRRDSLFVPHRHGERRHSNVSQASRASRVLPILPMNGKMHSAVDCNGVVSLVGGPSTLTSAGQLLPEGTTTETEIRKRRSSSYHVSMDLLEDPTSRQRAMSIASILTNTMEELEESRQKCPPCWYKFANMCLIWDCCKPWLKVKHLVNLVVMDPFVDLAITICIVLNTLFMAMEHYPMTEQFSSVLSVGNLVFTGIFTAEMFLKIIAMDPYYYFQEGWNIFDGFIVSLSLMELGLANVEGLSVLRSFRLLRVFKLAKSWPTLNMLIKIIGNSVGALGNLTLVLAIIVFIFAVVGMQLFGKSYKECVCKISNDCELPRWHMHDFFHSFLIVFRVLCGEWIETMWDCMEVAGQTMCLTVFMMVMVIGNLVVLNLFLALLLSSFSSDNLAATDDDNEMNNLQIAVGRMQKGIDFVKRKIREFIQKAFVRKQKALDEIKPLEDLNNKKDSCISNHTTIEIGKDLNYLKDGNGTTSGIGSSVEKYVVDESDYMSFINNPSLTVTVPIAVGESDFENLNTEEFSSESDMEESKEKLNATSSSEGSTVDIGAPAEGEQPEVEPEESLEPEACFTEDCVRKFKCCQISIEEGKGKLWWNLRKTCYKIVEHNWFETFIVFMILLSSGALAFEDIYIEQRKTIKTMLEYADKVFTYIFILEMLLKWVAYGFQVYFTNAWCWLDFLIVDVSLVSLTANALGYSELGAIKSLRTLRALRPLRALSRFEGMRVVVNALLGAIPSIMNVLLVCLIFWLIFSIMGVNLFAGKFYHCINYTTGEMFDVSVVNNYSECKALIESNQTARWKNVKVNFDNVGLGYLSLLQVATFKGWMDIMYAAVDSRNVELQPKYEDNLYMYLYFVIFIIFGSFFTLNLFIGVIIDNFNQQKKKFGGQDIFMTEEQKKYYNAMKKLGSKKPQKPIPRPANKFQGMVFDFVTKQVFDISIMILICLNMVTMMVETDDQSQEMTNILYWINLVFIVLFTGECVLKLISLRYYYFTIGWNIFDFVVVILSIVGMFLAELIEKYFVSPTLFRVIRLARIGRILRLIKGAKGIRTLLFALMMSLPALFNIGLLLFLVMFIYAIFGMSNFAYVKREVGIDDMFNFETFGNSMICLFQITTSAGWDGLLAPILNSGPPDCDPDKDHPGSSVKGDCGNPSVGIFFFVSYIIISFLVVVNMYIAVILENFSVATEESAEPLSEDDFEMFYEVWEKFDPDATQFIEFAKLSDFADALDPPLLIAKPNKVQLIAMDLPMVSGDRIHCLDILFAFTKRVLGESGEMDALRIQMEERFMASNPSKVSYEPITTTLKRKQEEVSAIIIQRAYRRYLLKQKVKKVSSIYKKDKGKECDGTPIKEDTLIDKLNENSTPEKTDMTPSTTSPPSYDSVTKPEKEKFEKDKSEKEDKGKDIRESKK
UniProt Q15858, whole entry: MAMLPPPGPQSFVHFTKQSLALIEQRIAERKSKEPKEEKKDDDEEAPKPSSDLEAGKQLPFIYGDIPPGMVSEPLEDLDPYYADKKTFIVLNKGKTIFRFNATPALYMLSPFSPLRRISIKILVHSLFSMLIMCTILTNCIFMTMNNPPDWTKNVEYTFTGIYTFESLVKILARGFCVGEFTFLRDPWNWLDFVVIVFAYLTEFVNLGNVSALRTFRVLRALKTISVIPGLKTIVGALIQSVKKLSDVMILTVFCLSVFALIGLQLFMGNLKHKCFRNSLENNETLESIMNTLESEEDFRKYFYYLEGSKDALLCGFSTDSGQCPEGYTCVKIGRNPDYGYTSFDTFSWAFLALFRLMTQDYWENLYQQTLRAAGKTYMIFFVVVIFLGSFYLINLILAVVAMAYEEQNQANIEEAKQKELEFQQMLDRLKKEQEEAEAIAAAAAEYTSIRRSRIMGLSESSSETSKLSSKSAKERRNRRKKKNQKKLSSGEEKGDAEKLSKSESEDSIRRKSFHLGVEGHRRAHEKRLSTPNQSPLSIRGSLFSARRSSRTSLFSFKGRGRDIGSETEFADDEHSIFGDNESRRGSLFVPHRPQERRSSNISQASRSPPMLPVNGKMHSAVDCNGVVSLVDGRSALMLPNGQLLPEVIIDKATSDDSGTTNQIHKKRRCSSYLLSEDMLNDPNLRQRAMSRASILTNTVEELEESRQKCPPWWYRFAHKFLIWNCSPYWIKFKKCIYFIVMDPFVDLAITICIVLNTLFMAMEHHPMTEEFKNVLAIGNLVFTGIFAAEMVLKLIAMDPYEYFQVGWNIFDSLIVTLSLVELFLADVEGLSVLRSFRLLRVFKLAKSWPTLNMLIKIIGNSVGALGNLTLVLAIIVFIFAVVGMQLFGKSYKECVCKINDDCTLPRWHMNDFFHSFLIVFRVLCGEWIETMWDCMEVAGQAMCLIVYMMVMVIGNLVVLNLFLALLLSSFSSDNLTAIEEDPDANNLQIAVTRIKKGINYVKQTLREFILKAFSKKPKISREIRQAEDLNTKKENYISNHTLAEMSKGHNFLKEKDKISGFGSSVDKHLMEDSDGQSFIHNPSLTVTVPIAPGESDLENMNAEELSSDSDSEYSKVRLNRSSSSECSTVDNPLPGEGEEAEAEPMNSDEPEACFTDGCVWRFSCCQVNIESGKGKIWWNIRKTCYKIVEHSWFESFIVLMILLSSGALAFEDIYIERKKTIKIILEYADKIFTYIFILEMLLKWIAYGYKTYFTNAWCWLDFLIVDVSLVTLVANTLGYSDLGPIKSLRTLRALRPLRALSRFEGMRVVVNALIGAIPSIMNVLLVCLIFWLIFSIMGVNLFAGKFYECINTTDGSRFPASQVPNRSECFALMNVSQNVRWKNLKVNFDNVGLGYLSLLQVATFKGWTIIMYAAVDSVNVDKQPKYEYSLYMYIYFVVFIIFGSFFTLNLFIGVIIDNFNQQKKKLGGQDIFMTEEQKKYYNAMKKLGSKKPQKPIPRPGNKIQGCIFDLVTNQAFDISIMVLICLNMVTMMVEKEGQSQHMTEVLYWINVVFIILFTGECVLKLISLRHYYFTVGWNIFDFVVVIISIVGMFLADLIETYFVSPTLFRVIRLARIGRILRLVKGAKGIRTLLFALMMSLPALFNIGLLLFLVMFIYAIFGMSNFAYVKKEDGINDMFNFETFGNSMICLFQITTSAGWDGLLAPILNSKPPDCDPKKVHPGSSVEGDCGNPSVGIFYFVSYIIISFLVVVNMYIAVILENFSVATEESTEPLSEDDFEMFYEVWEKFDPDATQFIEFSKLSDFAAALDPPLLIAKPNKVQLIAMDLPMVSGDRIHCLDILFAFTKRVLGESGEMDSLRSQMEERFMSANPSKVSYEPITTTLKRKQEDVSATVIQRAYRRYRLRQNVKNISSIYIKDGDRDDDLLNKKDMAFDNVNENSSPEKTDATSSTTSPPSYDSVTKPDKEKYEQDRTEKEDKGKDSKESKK
UniProt Q14524, whole entry: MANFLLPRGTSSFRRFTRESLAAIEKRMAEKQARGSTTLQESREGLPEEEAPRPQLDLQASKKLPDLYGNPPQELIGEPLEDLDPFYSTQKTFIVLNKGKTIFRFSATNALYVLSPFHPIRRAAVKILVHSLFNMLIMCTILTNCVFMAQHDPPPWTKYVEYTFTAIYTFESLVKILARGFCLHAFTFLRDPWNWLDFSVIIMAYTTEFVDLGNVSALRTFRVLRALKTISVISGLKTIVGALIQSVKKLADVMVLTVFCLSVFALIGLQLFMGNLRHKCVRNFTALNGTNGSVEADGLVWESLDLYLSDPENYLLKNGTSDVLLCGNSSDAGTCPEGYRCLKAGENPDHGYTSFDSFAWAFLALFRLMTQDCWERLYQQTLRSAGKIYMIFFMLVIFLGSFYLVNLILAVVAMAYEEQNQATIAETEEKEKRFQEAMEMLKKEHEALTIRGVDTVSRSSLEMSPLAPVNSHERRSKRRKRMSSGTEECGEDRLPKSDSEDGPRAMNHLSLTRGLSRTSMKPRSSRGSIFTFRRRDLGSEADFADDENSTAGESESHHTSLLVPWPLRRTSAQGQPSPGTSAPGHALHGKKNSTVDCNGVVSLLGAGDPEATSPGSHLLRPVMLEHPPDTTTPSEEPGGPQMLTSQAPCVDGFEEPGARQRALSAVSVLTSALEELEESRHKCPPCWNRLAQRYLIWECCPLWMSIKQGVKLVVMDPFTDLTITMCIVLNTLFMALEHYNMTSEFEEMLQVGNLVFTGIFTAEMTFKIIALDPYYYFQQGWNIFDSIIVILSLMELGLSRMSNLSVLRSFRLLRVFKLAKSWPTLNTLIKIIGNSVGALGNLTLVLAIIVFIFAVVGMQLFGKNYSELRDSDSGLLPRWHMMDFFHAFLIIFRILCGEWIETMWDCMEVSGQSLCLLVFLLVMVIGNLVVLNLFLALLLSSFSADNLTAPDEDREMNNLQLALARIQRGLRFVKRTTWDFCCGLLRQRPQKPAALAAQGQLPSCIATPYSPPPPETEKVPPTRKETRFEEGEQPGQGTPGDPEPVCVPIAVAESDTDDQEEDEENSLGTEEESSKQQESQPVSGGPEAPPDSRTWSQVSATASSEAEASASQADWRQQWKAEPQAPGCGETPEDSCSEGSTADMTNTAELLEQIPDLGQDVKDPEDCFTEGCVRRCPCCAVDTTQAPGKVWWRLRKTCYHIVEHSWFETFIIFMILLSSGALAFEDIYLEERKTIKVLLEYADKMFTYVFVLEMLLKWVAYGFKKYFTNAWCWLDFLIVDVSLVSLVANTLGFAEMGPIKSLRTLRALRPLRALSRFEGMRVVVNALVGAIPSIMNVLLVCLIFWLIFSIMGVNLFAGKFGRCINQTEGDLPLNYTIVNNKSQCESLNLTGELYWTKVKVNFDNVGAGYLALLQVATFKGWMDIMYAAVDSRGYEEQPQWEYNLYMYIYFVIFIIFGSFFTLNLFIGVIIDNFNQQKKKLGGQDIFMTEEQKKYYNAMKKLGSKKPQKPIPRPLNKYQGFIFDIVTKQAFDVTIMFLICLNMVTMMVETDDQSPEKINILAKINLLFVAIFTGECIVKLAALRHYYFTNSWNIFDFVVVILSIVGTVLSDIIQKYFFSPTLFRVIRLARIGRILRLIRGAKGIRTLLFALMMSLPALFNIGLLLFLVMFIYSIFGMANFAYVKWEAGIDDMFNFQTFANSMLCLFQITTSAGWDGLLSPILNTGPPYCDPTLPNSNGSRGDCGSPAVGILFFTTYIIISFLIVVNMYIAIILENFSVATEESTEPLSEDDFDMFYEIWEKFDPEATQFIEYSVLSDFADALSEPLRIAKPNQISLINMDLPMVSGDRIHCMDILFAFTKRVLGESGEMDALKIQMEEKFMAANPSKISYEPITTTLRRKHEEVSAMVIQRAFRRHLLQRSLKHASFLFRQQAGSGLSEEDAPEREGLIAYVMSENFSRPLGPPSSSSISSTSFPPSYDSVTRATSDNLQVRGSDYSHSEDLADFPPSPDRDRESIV

Tests used:
human Nav1.2 = biological target: T1, human Nav1.2 (Homo sapiens, UniProt Q99250); test: Nav1.2 spiking HEK assay on Swarm; format: cell-based; conditions: 8 mM bath [K+]; mean spike areas under TP1, TP8, TP10
T1 construct: expressed in transfected cells

Nav1.5 = conditions: read-out: Nav1.5 Ionworks (IC50); cited from earlier work
human Nav.1.7 = human Nav.1.7 (Homo sapiens, UniProt Q15858); test: Nav1.7 spiking HEK assay on Swarm
human Nav1.5 = human Nav1.5 (Homo sapiens, UniProt Q14524)

SMILES: CCN(CC)CC(=O)Nc1c(C)cccc1C [Lidocaine]
- IC50 (human Nav1.2): 47.2 µM

SMILES: Cc1cc2c(s1)Nc1ccccc1N=C2N1CCN(C)CC1 [Olanzapine]
- IC50 (Nav1.5): 39 µM

SMILES: CSCC[C@@H]1NC(=O)CNC(=O)[C@H](CCC(=O)O)NC(=O)[C@@H]2CSSC[C@H](NC(=O)[C@H](Cc3ccc(O)cc3)NC(=O)[C@@H]3CCCN3C(=O)CN)C(=O)N[C@@H](CCC(N)=O)C(=O)N[C@@H](CCCCN)C(=O)N[C@@H](Cc3c[nH]c4ccccc34)C(=O)N[C@@H](CCSC)C(=O)N[C@@H](CCC(N)=O)C(=O)N[C@@H]([C@@H](C)O)C(=O)N[C@H]3CSSC[C@H](NC(=O)[C@H](C(C)C)NC1=O)C(=O)N[C@@H](CCCNC(=N)N)C(=O)N[C@@H](CC(C)C)C(=O)N[C@@H](Cc1c[nH]c4ccccc14)C(=O)N[C@H](C(=O)N[C@@H](CCCCN)C(=O)N[C@@H](CCCCN)C(=O)N[C@@H](CCCCN)C(=O)N[C@@H](CC(C)C)C(=O)N[C@@H](CC(C)C)C(=O)O)CSSC[C@H](NC(=O)[C@H](CCCCN)NC(=O)[C@H](CCCNC(=N)N)NC(=O)[C@H](CCC(=O)O)NC(=O)[C@H](CO)NC(=O)[C@H](CC(=O)O)NC3=O)C(=O)N2 [JNJ63955918]
- State dependence (Kr/Ki) (human Nav.1.7): less than 10 fold
- State dependence (ratio of Nav1.7 IC50 at TP1 at 4 mM K+ over TP10 IC50 at 8 mM K+) (human Nav.1.7): 6.1
- IC50 (human Nav1.5): 6.26 µM
